The values that follow come from patent US6869925 (Amgen, dated 2005).

The target in this assay is SLPI binding sites on U937 cells (human monocyte cell line; intact cells, PMA-induced cells or plasma membranes) (human). Briefly: competition with 125I-SLPI, U937 plasma membranes, Kd by Cheng-Prusoff.

A word on the Kd: it is the free concentration of one partner at which half of the binding sites on the other are occupied at equilibrium, for simple one-to-one binding. Lower therefore signals higher affinity.

For the substance aprotinin (from UniProt P00974 36-93), the Kd is 10 µM. This counts as double-digit micromolar.
